Assay results as given in patent US5677432A, “Immunological detection of organophosphates” (dated 1997).

What was measured:
[1] = tested on: MAb 8B1 raised against parathion immunoconjugate; assay: Competitive ELISA with peroxidase-labelled MAb 8B1
[2] = tested on: MAb 4D4 raised against parathion immunoconjugate; assay: Competitive ELISA with peroxidase-labelled MAb 4D4
[3] = tested on: antisera to paraoxon immunoconjugate; assay: Competition ELISA, polyclonal sera from mice immunized with paraoxon immunoconjugate; details: for cross reaction (in words): any sera from mice injected with paraoxon-hapten immunoconjugates
[4] = tested on: antisera to parathion immunoconjugate; assay: Competition ELISA, polyclonal sera from mice immunized with parathion immunoconjugate; details: for competition / cross reactivity (in words): all mouse sera
[5] = tested on: antisera to azinphos immunoconjugate; assay: Competition ELISA, polyclonal sera from mice immunized with azinphos immunoconjugate
[6] = tested on: antisera to chlorpyrifos immunoconjugate; assay: Competition ELISA, polyclonal sera from mice immunized with chlorpyrifos immunoconjugate
[7] = tested on: MAb 10H12 raised against parathion immunoconjugate; assay: Competitive ELISA with peroxidase-labelled MAb 10H12
[8] = tested on: MAbs raised against the parathion immunoconjugate; assay: Competitive ELISA, MAbs against parathion immunoconjugate taken together; details: under the assay conditions given
[9] = tested on: MAbs raised against the azinphos immunoconjugate; assay: Competitive ELISA, MAbs against azinphos immunoconjugate taken together
[10] = tested on: MAb 8G8 raised against azinphos immunoconjugate; assay: Competitive ELISA with peroxidase-labelled MAb 8G8
[11] = tested on: MAb 9D11 raised against azinphos immunoconjugate; assay: Competitive ELISA with peroxidase-labelled MAb 9D11
[12] = tested on: MAb 7E10 raised against azinphos immunoconjugate; assay: Competitive ELISA with peroxidase-labelled MAb 7E10
[13] = sera to azinphos immunoconjugate

SMILES: O=[N+]([O-])c1ccc(O)cc1
- reaction / cross-reactivity (in words) [1]: no detectable reaction
- reaction / cross-reactivity (in words) [2]: no detectable reaction

SMILES: CCOP(=S)(OCC)Oc1nc(Cl)c(Cl)cc1Cl
- cross reaction (in words) [3]: No cross reaction was observed
- competition / cross reactivity (in words) [4]: no competition was observed
- competition / cross reactivity (in words) ([4]; listed as Chlorpyrifos): no cross reactivity
- cross reaction (in words) [5, 13]: no cross reaction
- I20 ([6]; sera of mouse 1 and 2): 60 ng/mL
- I50 ([6]; sera of mouse 1 and 2): 300 ng/mL
- I80 ([6]; sera of mouse 1 and 2): 1500 ng/mL
- I20 ([6]; sera of mouse 3 and 4): 25 ng/mL
- I50 ([6]; sera of mouse 3 and 4): 150 ng/mL
- I80 ([6]; sera of mouse 3 and 4): 860 ng/mL

SMILES: CC1(COCC(=O)O)COP(=S)(Oc2ccc([N+](=O)[O-])cc2)OC1 (centres unmarked)
- I20 ([4]; competition with hapten): 1 to 2 ng/mL
- I50 ([4]; competition with hapten): 0.02 to 0.025 µg/mL
- I80 ([4]; competition with hapten): 0.08 to 0.1 µg/mL

SMILES: CC1(COCC(=O)O)COP(=S)(SCn2nnc3ccccc3c2=O)OC1 (centres unmarked)
- I20 ([5]; competition with hapten): 1 to 2 ng/mL
- I50 ([5]; competition with hapten): 6-10 ng/mls
- I80 ([5]; competition with hapten): 0.06 to 0.1 µg/mL

SMILES: COP(=S)(OC)Oc1ccc([N+](=O)[O-])c(C)c1
- detection relative to parathion [1]: 30%
- detection relative to parathion [2]: 30%
- detection relative to parathion [7]: 80%

SMILES: CCOP(=S)(OCC)Oc1ccc([N+](=O)[O-])cc1
- range that could be quantitated [8]: ng to low μg/ml
- I20 ([4]; mouse 1 serum): 80 ng/mL
- I50 ([4]; mouse 1 serum): 1.2 µg/mL
- I80 ([4]; mouse 1 serum): 16 µg/mL
- I20 ([4]; mouse 2 serum): 60 ng/mL
- I50 ([4]; mouse 2 serum): 0.8 µg/mL
- I80 ([4]; mouse 2 serum): 11 µg/mL
- I20 ([4]; mouse 3 serum): 300 ng/mL
- I50 ([4]; mouse 3 serum): 4 µg/mL
- I80 ([4]; mouse 3 serum): 31 µg/mL
- I20 ([4]; mouse 4 serum): 350 ng/mL
- I50 ([4]; mouse 4 serum): 2.1 µg/mL
- I80 ([4]; mouse 4 serum): 33 µg/mL
- cross reaction relative to azinphos methyl [5, 13]: 1-2%
- cross reaction relative to azinphos methyl ([5]; sera to azinphos immunoconjugate, listed as Parathion): 1-2%
- cross-reactivity (in words) ([9]; MAb-based assays): no cross-reactivity
- reaction / cross-reactivity (in words) [7]: reacted equally well

SMILES: CCOP(=O)(OCC)Oc1ccc([N+](=O)[O-])cc1
- I20 ([3]; mouse 1 serum): 1200 ng/mL
- I50 ([3]; mouse 1 serum): 8.1 µg/mL
- I80 ([3]; mouse 1 serum): 46 µg/mL
- I20 ([3]; mouse 2): 710 ng/mL
- I50 ([3]; mouse 2): 2.2 µg/mL
- I80 ([3]; mouse 2): 105 µg/mL
- I20 ([3]; mouse 3 serum): 1200 ng/mL
- I50 ([3]; mouse 3 serum): 8 µg
- I80 ([3]; mouse 3 serum): 43 µg/mL
- I20 ([3]; mouse 4): 200 ng/mL
- I50 ([3]; mouse 4): 2 µg/mL
- I80 ([3]; mouse 4): 23 µg/mL
- competition / cross reactivity (in words) [4]: only low levels of cross-reactivity
- cross reaction ([4]; mouse 3 and 4 sera): no cross reaction
- detection relative to parathion [1]: 2%
- reaction / cross-reactivity (in words) [1]: only low levels of cross-reactivity
- detection relative to parathion [2]: 2%
- reaction / cross-reactivity (in words) [2]: only low levels of cross-reactivity
- detection relative to parathion [7]: 100%
- reaction / cross-reactivity (in words) [7]: reacted equally well

SMILES: CCOP(=S)(OCC)SCn1nnc2ccccc2c1=O
- reaction relative to azinphos methyl [10]: 30%
- cross reaction (in words) [3]: No cross reaction was observed
- relative competitiveness (azinphos ethyl vs azinphos methyl) [5, 13]: slightly more competitive than azinphos methyl
- Competition ([6]; at concentrations up to 100 μg/ml): neither parathion, paraoxon, azinphos methyl nor azinphos ethyl could compete at 100 μg/ml
- reaction relative to azinphos methyl [11]: 30%
- reaction relative to azinphos methyl [12]: 30%

SMILES: CC1(COCC(=O)O)COP(=O)(Oc2ccc([N+](=O)[O-])cc2)OC1 (centres unmarked)
- I20 ([3]; competition with hapten): 2 ng/mL
- I50 ([3]; competition with hapten): 0.02 µg/mL
- I80 ([3]; competition with hapten): 0.1 µg/mL

SMILES: CC1(COCC(=O)O)COP(=S)(Oc2nc(Cl)c(Cl)cc2Cl)OC1 (centres unmarked)
- I20 ([6]; all mice): 1 ng/mL
- I50 ([6]; all mice): 20 ng/mL
- I80 ([6]; all mice): 100 ng/mL

SMILES: COP(=S)(OC)SCn1nnc2ccccc2c1=O
- cross reaction (in words) [3]: No cross reaction was observed
- competition / cross reactivity (in words) [4]: no competition was observed
- I20 ([5]; mouse 1 and 3 sera): 400 ng/mL
- I50 ([5]; mouse 1 and 3 sera): 4 µg/mL
- I80 ([5]; mouse 1 and 3 sera): 30 µg/mL
- I20 ([5]; mouse 2 serum): 800 ng/mL
- I50 ([5]; mouse 2 serum): 20 µg/mL
- I80 ([5]; mouse 2 serum): 120 µg/mL
- I20 ([5]; mouse 4 serum): 20 ng/mL
- I50 ([5]; mouse 4 serum): 0.8 µg/mL
- I80 ([5]; mouse 4 serum): 34 µg/mL
- relative competitiveness (azinphos ethyl vs azinphos methyl) [5, 13]: only marginally less effective than azinphos ethyl
- range that could be quantitated ([9]; under the assay conditions given): picogram to low ng range
